Measured values from PMC3678023 (Journal of Molecular Biology, 2013).

The chains behind the UniProt entries cited, without tags or fusion partners.
UniProt P31652, whole entry: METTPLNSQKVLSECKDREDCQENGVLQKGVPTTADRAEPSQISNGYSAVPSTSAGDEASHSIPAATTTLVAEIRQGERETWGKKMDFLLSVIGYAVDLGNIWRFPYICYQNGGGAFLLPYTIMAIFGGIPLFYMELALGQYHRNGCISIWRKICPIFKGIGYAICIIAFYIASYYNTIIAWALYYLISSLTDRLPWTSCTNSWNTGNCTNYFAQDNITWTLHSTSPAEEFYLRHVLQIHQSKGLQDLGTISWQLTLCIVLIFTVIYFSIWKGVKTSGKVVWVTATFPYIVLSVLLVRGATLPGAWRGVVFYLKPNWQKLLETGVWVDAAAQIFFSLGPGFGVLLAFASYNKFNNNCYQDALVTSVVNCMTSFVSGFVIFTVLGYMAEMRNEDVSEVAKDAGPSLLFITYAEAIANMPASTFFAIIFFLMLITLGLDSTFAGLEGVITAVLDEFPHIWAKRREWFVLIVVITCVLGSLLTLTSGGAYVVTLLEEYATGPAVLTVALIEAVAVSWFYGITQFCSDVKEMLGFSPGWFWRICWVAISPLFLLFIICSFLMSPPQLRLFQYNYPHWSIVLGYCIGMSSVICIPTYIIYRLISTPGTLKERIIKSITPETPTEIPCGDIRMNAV

Target: wild-type SERT (Rattus norvegicus, UniProt P31652)
Conditions: read-out: Apparent Ki; wild-type SERT membranes, 0.2 nM [125I]RTI55

ibogaine gave a Ki of 20 ± 14 nM.
